From ChEMBL document CHEMBL1136038, “Parallel solution- and solid-phase synthesis of spiropyrrolo-pyrroles as novel neurokinin receptor ligands” (Bioorg Med Chem Lett, 2002)
pKi: −log10 of the molar value.

The chains behind the UniProt entries cited, without tags or fusion partners.
UniProt P25103, whole entry: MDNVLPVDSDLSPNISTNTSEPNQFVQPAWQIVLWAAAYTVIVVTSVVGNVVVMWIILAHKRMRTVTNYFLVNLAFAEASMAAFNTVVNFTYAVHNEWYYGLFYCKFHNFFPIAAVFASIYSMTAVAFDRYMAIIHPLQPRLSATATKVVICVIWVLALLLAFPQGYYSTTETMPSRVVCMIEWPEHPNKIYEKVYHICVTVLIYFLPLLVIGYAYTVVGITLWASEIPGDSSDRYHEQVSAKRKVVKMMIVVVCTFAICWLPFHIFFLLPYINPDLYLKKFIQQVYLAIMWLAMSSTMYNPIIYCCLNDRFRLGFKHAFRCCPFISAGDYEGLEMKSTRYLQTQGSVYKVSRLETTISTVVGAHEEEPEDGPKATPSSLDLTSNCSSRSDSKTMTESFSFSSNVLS

Target: Substance-P receptor (Homo sapiens, UniProt P25103)
Assay: Affinity for human Tachykinin receptor 1 expressed in CHO cells
Assay type: cell-based

CC(=O)N1CCC2(CC1)C1C(=O)N(c3ccccc3)C(=O)C1CN2C(=O)c1cc(C(F)(F)F)cc(C(F)(F)F)c1 (stereo unspecified)
pKi: 5.97
